In ChEMBL document CHEMBL1126720 (J Med Chem, 1993):
Only a part of the results on these compounds is given; other tests are left out.

Assay: Growth inhibition against CHO-derived cell line AA8
Format: functional, cell-based, Cricetulus griseus
Method in brief: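 Log-phase AA8 (200 viable cells/well) or UV4 (300 viable cells/well) cells with 5000 lethally irradiated AA8 feeder cells per well, in α-MEM with 10% heat-inactivated fetal calf serum. Cell mass read after 72-78 h by methylene blue protein staining and absorbance. IC50 = concentration reducing cell mass to 50% of the mean of 8 same-plate controls; means of at least 3 determinations ± SEM. Hypersensitivity factor = aerobic IC50(AA8)/IC50(UV4).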

## NCCN(CCCl)CCCl
  IC50: 1500 nM
